Measured affinities in a library of Ab-14 heavy chain variants

Reference: Li et al. 2023, doi:10.1038/s41467-023-39022-2. File: FLAb, binding data.

The target is the same throughout: PDVDLGDISGINAS, from the HR2 region of SARS-CoV-2 spike.

Each scFv is VH, a (GGGGS)3 linker, VL, as in the parent Ab-14, and differs from it in the CDRs of the heavy chain only.
VH: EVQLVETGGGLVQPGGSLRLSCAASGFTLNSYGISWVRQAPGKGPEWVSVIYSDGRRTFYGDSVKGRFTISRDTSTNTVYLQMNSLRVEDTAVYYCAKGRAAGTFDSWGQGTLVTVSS
VL: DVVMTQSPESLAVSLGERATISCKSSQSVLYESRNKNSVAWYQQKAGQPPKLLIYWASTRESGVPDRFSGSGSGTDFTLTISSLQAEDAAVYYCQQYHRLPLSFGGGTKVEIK

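Phage display of a naive human antibody library on the peptide gave the parent. These sequences belong to a second round, designed from the earlier measurements on random variants of the parent. Their group label is 14H_GP_HC (GP: Gaussian process model; HC: hill climbing; a sequence that several methods proposed may carry one label only). Affinity was read by AlphaSeq, a pooled yeast mating assay with surface-displayed partners. Pairs that bind mate more often; barcode pairs of the diploids are counted by sequencing. Each replicate has its own calibration line, from reference interactions of the BCL2 family. Each pool was mated in six replicate cultures.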

Changes read parent residue, position, new residue, counted from the first residue of the VH shown. Affinities are written as log10 Kd with Kd in nM; a lower number is a better binder. An entry "nd" has no value in the source: the pair was not observed among the diploids in that replicate. This suggests poor binding but is not conclusive. Nonspecific signal, from three strains lacking the peptide, appeared in 1% of pairings of all heavy chain designs, centred on 2.08 (5% of these signals below 0.84); values are not corrected for it. For each scFv, signals with the empty controls are counted beside the result, with their mean in brackets.

changes | replicates, log10 nM | empty controls
G26K/S31E/G61M/A101F | nd / nd / nd / nd / nd / nd | 0 of 18
T28D/Y32F/G61L/R100Q | nd / nd / nd / nd / nd / nd | 0 of 18
N30D/G61V/R100Q/A101L | nd / nd / 1.27 / nd / nd / nd | 0 of 18
G26W/S31D/F59Q/G61I | nd / nd / nd / nd / nd / nd | 1 of 18 (1.62)
S31D/G61I/A101G | 1.19 / 0.89 / 1.68 / 0.98 / 2.57 / 0.94 | 0 of 18
T28W/S31D/G61A/A101T/S107E | nd / 1.27 / 0.65 / 0.72 / 1.19 / 0.94 | 0 of 18
S31D/S53A/D106M | nd / nd / nd / nd / 2.86 / nd | 0 of 18
S31E/R56V/D106I | nd / nd / nd / nd / nd / nd | 0 of 18
S31E/G61T/A101E/S107A | -0.16 / -0.41 / -0.26 / -0.41 / -0.41 / -0.48 | 0 of 18
T28A/G61D/R100Q/A101T | 0.63 / 1.09 / 0.77 / 0.19 / 0.93 / 0.82 | 0 of 18
F27N/S31D/G61T/A101C | nd / nd / nd / nd / nd / nd | 0 of 18
T28I/G61D/R100Q/A101E | 2.31 / 2.00 / 1.11 / 1.38 / 3.49 / 1.51 | 2 of 18 (2.46)
S31E/R56H/G61S/T104K | nd / nd / nd / nd / nd / nd | 0 of 18
T28D/Y32F/G61L/R100Q/A101T | 0.51 / 0.92 / 1.55 / 2.13 / 1.39 / nd | 1 of 18 (1.75)
S31Q/G61S/G103V/S107K | nd / nd / nd / nd / nd / nd | 0 of 18
S31E/D106F/S107Q | nd / 0.24 / 0.54 / 0.71 / 0.18 / 0.60 | 0 of 18
S31E/G61R/A101H | nd / 1.14 / nd / nd / 1.30 / 1.43 | 0 of 18
G61S/A101E/D106E | -0.11 / 0.09 / 0.52 / 0.24 / 0.35 / 0.12 | 0 of 18
T28W/S53A/R100V | 0.36 / 0.11 / 0.58 / 0.02 / 0.34 / 0.31 | 0 of 18
S31D/G61D/D106F | nd / nd / nd / nd / nd / nd | 0 of 18
S31E/A101F/S107M | nd / nd / nd / 1.44 / 3.06 / 1.10 | 0 of 18
T28E/S31E/G61S/S63A/A101C | 2.70 / nd / nd / 2.72 / 1.97 / 3.06 | 0 of 18
T28N/S53A/G55M | nd / nd / nd / nd / nd / 1.53 | 0 of 18
R56Q/G61D/S63N/R100Q/A101L | 1.11 / 1.50 / 1.16 / 1.19 / nd / 0.70 | 0 of 18
G26N/T28D/R100K/A101Q | nd / nd / nd / nd / nd / nd | 0 of 18
S31E/R56K/D106M | nd / 2.64 / nd / nd / nd / nd | 0 of 18
T28Y/S31D/A101Q/D106I | nd / nd / 1.49 / nd / 1.49 / nd | 0 of 18
S31E/D62E/G103V/S107T | 0.57 / nd / nd / nd / nd / nd | 0 of 18
S31D/R56Q/G61I | 0.34 / 0.60 / 0.92 / 0.84 / 1.77 / nd | 1 of 18 (1.31)
T28D/F59A/G61D/R100Q | -0.35 / -0.57 / -0.16 / 0.02 / -0.17 / -0.12 | 0 of 18
T28Q/S63Q | nd / nd / nd / nd / nd / nd | 1 of 18 (0.94)
T28D/G61D/R100Q/A101V | 0.85 / 0.48 / 0.08 / 0.19 / -0.28 / -0.11 | 0 of 18
S31E/G61H/T104C | 1.23 / 0.90 / 1.26 / 0.28 / 0.83 / 0.24 | 0 of 18
F27K/G61D/R100Q/A101L | 0.14 / 0.31 / 0.83 / 0.45 / 0.31 / 0.17 | 0 of 18
T28D/G103W/S107K | nd / nd / nd / nd / nd / nd | 0 of 18
S31E/R56M/D106I | nd / nd / nd / nd / nd / nd | 1 of 18 (1.71)
T28Q/S31E/S63A | 0.27 / 0.17 / -0.26 / 0.23 / 0.32 / -0.03 | 0 of 18
T28Y/S31D/F59M | nd / nd / nd / nd / nd / nd | 0 of 18
T28W/S31E/G61H/G103V/S107N | nd / nd / nd / nd / nd / nd | 0 of 18
T28S/S53A/G55M/D106T | nd / nd / nd / nd / nd / nd | 0 of 18
S53A/A101M/D106K/S107I | nd / nd / nd / nd / nd / nd | 0 of 18
T28E/S31E/S53A/R100G | -0.02 / -0.61 / 0.00 / -0.45 / -0.11 / nd | 0 of 18
G61T/R100M/A101V | 1.10 / 1.23 / 0.86 / -0.01 / 3.48 / 1.41 | 0 of 18
T28N/S53A/G61V/R100K | 0.02 / 0.10 / -0.07 / -0.12 / -0.19 / 0.43 | 0 of 18
T28C/S31D/F59S/G61I | 1.37 / 0.81 / 1.33 / 0.96 / 0.23 / 0.31 | 0 of 18
T28K/R100Q/A101L | nd / 1.35 / nd / nd / nd / nd | 0 of 18
T28W/S31D/G61A/S107M | -0.08 / nd / nd / nd / nd / nd | 0 of 18
T28S/S31E/G61C/R100H/S107R | 0.95 / nd / 0.22 / -0.05 / 0.94 / 0.09 | 0 of 18
S31E/R100P/S107R | nd / nd / nd / nd / nd / nd | 0 of 18
S31Q/G61S/R100Q/S107K | 0.51 / 0.62 / -0.10 / 0.24 / 0.45 / 0.33 | 1 of 18 (1.81)
T28S/S31M/G61H | 2.49 / 0.24 / -0.08 / 1.29 / nd / 1.30 | 0 of 18

The 7 strongest on average among those seen in every replicate, once more:

{"changes": "S31E/G61T/A101E/S107A", "replicates, log10 nM": "-0.16 / -0.41 / -0.26 / -0.41 / -0.41 / -0.48", "empty controls": "0 of 18"}
{"changes": "T28D/F59A/G61D/R100Q", "replicates, log10 nM": "-0.35 / -0.57 / -0.16 / 0.02 / -0.17 / -0.12", "empty controls": "0 of 18"}
{"changes": "T28N/S53A/G61V/R100K", "replicates, log10 nM": "0.02 / 0.10 / -0.07 / -0.12 / -0.19 / 0.43", "empty controls": "0 of 18"}
{"changes": "T28Q/S31E/S63A", "replicates, log10 nM": "0.27 / 0.17 / -0.26 / 0.23 / 0.32 / -0.03", "empty controls": "0 of 18"}
{"changes": "T28D/G61D/R100Q/A101V", "replicates, log10 nM": "0.85 / 0.48 / 0.08 / 0.19 / -0.28 / -0.11", "empty controls": "0 of 18"}
{"changes": "G61S/A101E/D106E", "replicates, log10 nM": "-0.11 / 0.09 / 0.52 / 0.24 / 0.35 / 0.12", "empty controls": "0 of 18"}
{"changes": "T28W/S53A/R100V", "replicates, log10 nM": "0.36 / 0.11 / 0.58 / 0.02 / 0.34 / 0.31", "empty controls": "0 of 18"}

Values of this round are not directly comparable with the first-round values of the same sequences. Of ten entries with the parent sequence, four were seen in most replicates (averages 0.34 to 2.37), three in one and three in none, so single entries are noisy. In the paper, a design with two or fewer of six values counts as a poor binder.